81 molecules from published antibiotic growth screens (doi:10.1038/s41589-023-01349-8) can be followed below.

Some of the results follow.

This assay deals with A. baumannii ATCC 17978. Nature of the assay: relative growth (fraction of control); higher = less inhibition. The note with it: 50 µM.
In the case of `C[C@@H]1CN([C@H](C)CO)S(=O)(=O)c2ccc(-c3ccc(F)cc3)cc2O[C@H]1CN(C)C(=O)C1CCOCC1`, the relative growth came to 1.16. The figure for `Nn1c(=S)[nH]c2cc(C(=O)O)ccc2c1=O` is 0.91.

Take `CC[C@H](C)C(=O)O[C@H]1C[C@@H](C)C=C2C=C[C@H](C)[C@H](CC[C@@H]3C[C@@H](O)CC(=O)O3)[C@H]21`: the relative growth is 0.78. Turning to `COc1cccc(NC(=O)N2C[C@H](O)COC[C@H]3O[C@H](CC(=O)NCc4ccccc4F)CC[C@@H]32)c1`, the relative growth worked out at 1.18. The figure for `NCCS(=O)(=O)N1CCN(c2ccc(F)cc2)CC1` is 0.829; for `COc1ccc(S(=O)(=O)N2C[C@@H](O)COC[C@H]3O[C@H](CC(=O)NCCN4CCCCC4)CC[C@@H]32)cc1` it is 0.921. Turning to `COCC(=O)Nc1ccccc1C(=O)O`, the relative growth turned out to be 1. In the case of `CO[C@@H]1CN(C)C(=O)c2ccc(NC(=O)C3CC3)cc2OC[C@H](C)N(C(=O)C2CCOCC2)C[C@H]1C`, the relative growth was 1.16. The figure for `C[C@H]1COC(=O)[C@@H](CC(=O)OC(C)(C)C)CC=CC[C@@H](CC(=O)N[C@@H](CO)Cc2ccccc2)C(=O)N1` is 0.967; for `CO[C@H](CN(C)S(=O)(=O)c1cccc(Cl)c1)[C@@H](C)CN([C@@H](C)CO)S(=O)(=O)c1ccc(Cl)cc1` it is 0.909. `C[C@@H]1CN([C@H](C)CO)S(=O)(=O)c2ccc(C#CC3CCCC3)cc2O[C@H]1CN(C)Cc1cncnc1`: the relative growth turned out to be 0.633. The value for `Cc1cc(C)nc(NS(=O)(=O)c2ccc(NC(=O)c3cccn(OCc4ccc(F)cc4)c3=O)cc2)n1` was 0.998. The figure for `CC1(C)CC[C@]2(C(=O)O)CC[C@]3(C)C(=CCC4[C@@]5(C)CC[C@H](O)[C@@](C)(CO)C5CC[C@]43C)C2C1` (stereo partly specified) is 0.709. On to `NC1CCN(C(=O)c2c[nH]c3ccccc23)CC1`, for which the relative growth turned out to be 0.887. The figure for `C[C@H](CO)N1C[C@H](C)[C@H](CN(C)C(=O)Cc2ccccn2)Oc2cc(C#C[C@@H](C)O)ccc2S1(=O)=O` is 1.04; for `NC(=O)N1C(=O)[C@H]2[C@H](C1=O)[C@H]1C=C(CCCO)[C@@H]2[C@@H](C2CC2)N1Cc1cc2c(cc1Br)OCO2` it is 1.09; for `COCC(=O)N1C[C@H](C)[C@H](OC)CN(C)C(=O)c2cc(NC(=O)c3cc(C)on3)ccc2OC[C@H]1C` it is 0.965. Molecule `CC(=O)N[C@@H](CS)C(=O)O` had a relative growth of 0.988. The value for `C=CCOC(=O)[C@@H]1[C@H]2C(=O)O[C@H](c3ccccc3)[C@H](c3ccccc3)N2[C@H](c2ccc(OCCOC(=O)[C@H]3C[C@H]4C(=O)NCC(=O)N4[C@H]3c3cccc(OCCO)c3)cc2)[C@@]12C(=O)Nc1ccc(I)cc12` was 1.13. `NCc1ccccc1Sc1ccccc1CO` showed a relative growth of 0.816.

Turning to `O=C(C[C@@H]1CC[C@@H]2[C@H](COC[C@@H](O)CN2C(=O)c2ccncc2)O1)NC1CCC1`, the relative growth turned out to be 0.901. The figure for `Cc1cc(NN)nc(SCC(=O)NN)n1` is 1.02; for `c1ccc(-c2ccnc(-c3cc(-c4ccccc4)ccn3)c2)cc1` it is 1.1. `COc1cccc(NC(=S)NN)c1` showed a relative growth of 0.933. The value for `CN[C@H]1C[C@@H](N)[C@H](O)[C@@H](O[C@@H]2O[C@H](CO)[C@@H]3OC4(O[C@@H]3[C@@H]2O)O[C@H](C(N)CO)[C@H](O)[C@H](O)[C@H]4O)[C@@H]1O` (stereo partly specified) was 0.918; that for `CCCCN(CCCC)CCCOC(=O)c1ccc(N)cc1.O=S(=O)(O)O` was 0.86; that for `COc1ccc(S(=O)(=O)N(C)C[C@@H]2Oc3ncc(Br)cc3C(=O)N([C@H](C)CO)C[C@@H]2C)cc1` was 1.11.

Consider `COc1cccc(-c2cc(=O)c3cc(OC)ccc3o2)c1`, for which the relative growth amounted to 0.934. The value for `COc1cccc(C#Cc2ccc3c(c2)O[C@H](CN(C)S(=O)(=O)c2ccccc2F)[C@@H](C)CN([C@@H](C)CO)S3(=O)=O)c1` was 1.21; that for `Cc1cn[nH]c1.Cl` was 1.08; that for `C/N=C1\S[C@@H](CC(=O)NC(C)C)C(=O)N1C` was 0.971. The value for `COc1ccc(S(=O)(=O)N[C@H]2CC[C@@H](CCNC(=O)CN3CCOCC3)O[C@@H]2CO)cc1` was 0.936; that for `CCNC(=O)C[C@@H]1CC[C@@H](NC(=O)C2CC2)[C@@H](CO)O1` was 1.05; that for `C=CCN1C(=O)[C@]2(O[C@@H](CCOC(=O)NCCCCCC(=O)NO)[C@H]([Si](C)(C)c3ccc(OC)cc3)[C@H]2C)c2cc(I)ccc21` was 0.949.

On to `CN(C)C(=O)C[C@H]1C=C[C@H](NC(=O)C2CCOCC2)[C@H](CO)O1`, for which the relative growth stood at 1.05.

For `Cl.NCC(=O)CCC(=O)O`, the relative growth is 0.965. The value for `Cc1nnc(SCC2=C(C(=O)[O-])N3C(=O)[C@@H](NC(=O)Cn4cnnn4)[C@H]3SC2)s1.[Na+]` was 1.21; that for `O=c1cc(-c2ccccc2)oc2cc(O)c(O)c(O)c12` was 0.974; that for `CC(C)CCCC(C)N` (stereo unspecified) was 1. The value for `C[C@H](NC(=O)C[C@@H]1CC[C@H](NC(=O)CN2CCOCC2)[C@H](CO)O1)c1ccccc1` was 1.01. The value for `Cc1cccc(NC(=O)C(=O)NCCCO)c1` was 0.985.

Consider `O=C1CCC(=O)N1c1nccs1`, for which the relative growth is 0.968. The figure for `O=C(C[C@@H]1CC[C@H](NS(=O)(=O)c2ccccc2F)[C@H](CO)O1)NCCCN1CCOCC1` is 0.967. `NC(=O)NCC#Cc1ccc2c(c1)[C@]1(C(=O)N2)[C@H](C(=O)N2CCCCCCC2)[C@H]2C(=O)O[C@H](c3ccccc3)[C@H](c3ccccc3)N2[C@@H]1c1ccccc1OCCO` displayed a relative growth of 0.919. As for `O=C(CCCCCCC(=O)Nc1ccccc1)NO`, the relative growth stood at 0.889. The value for `CS(=O)(=O)Nc1ccc2c(c1)C(=O)NC2=O` was 1.13. In turn, `C[C@@H]1CN([C@H](C)CO)S(=O)(=O)c2ccc(C#Cc3cccnc3)cc2O[C@@H]1CN(C)CC1CCOCC1` yielded a relative growth of 1.06. Molecule `COCCOC(=O)N1C(=O)[C@@]2(c3cc(C#CC4(O)CCCCCC4)ccc31)[C@H](c1ccc(OCCO)cc1)N1[C@H](c3ccccc3)[C@H](c3ccccc3)OC(=O)[C@H]1[C@@H]2C(=O)N1CCN(c2ncccn2)CC1` returned a relative growth of 1.09.

`O=C(CS)NCCCCCNC(=O)[C@@H]1C[C@@H]2C(=O)N[C@@H](Cc3ccccc3)C(=O)N2[C@@H]1c1ccc(O)cc1` registered a relative growth of 0.952. The figure for `COc1ccccc1N1CCN(CCCNc2cc(=O)n(C)c(=O)n2C)CC1.Cl` is 1.1; for `O[C@H]1[C@H](O)[C@@H](O)C(c2ccc(Cl)c(Cc3ccc(OC4CCOC4)cc3)c2)O[C@@H]1O` (stereo partly specified) it is 1.01; for `O=C(NC1CCCCC1)[C@@H]1C(c2ccc(Cl)cc2)=C(S(=O)(=O)c2ccccc2)C(=O)N1Cc1ccc(-c2ccccc2)cc1` it is 1.01. Turning to `O=S(=O)(NCC[C@@H]1CC[C@@H](NS(=O)(=O)c2cccc(Cl)c2)[C@@H](CO)O1)c1cccc(F)c1`, the relative growth turned out to be 0.816. The figure for `COc1ccc(S(=O)(=O)Nc2ccc3c(c2)[C@@H]2C[C@@H](CC(=O)NCC4CC4)O[C@@H](CO)[C@@H]2O3)cc1` is 0.957; for `O=C(C[C@H]1CC[C@H]2[C@@H](COC[C@H](O)CN2Cc2cc(F)ccc2F)O1)N[C@H]1CCN(Cc2ccccc2)C1` it is 1.05; for `C[C@H](CO)N1C[C@H](C)[C@H](CN(C)S(C)(=O)=O)Oc2cc(C#CCN(C)C)ccc2S1(=O)=O` it is 0.898. In turn, `NNC(=O)CS(=O)(=O)c1ccc(Cl)cc1` came in with a relative growth of 0.998. `O=C(CN1CCOCC1)NCC[C@@H]1CC[C@@H](NS(=O)(=O)c2ccc(Cl)cc2)[C@H](CO)O1` displayed a relative growth of 1.25. The value for `CCS(=O)(=O)NCC[C@@H]1CC[C@@H](NS(=O)(=O)c2cccc(F)c2)[C@@H](CO)O1` was 0.846; that for `Cn1cnc(S(=O)(=O)N[C@H]2CC[C@H](CC(=O)Nc3ccccc3)O[C@@H]2CO)c1` was 1.04.

As to `OCC(O)CO`, the relative growth came out at 1.06. The figure for `CN(C)C(=O)C[n+]1ccc(/C=N/O)cc1` is 1.02. Consider `C[C@@H]1CN([C@H](C)CO)S(=O)(=O)c2ccc(C#CC3(O)CCCC3)cc2O[C@@H]1CN(C)C(=O)Cc1cccnc1`, for which the relative growth is 0.985.

Take `O=C1COC[C@@H](c2ccccc2)N1`: the relative growth was 0.99. The value for `Cc1cccc(N(CC(=O)O)CC(=O)O)c1` was 1.03.

`O=C(C[C@@H]1C=C[C@@H](NC(=O)c2cnccn2)[C@H](CO)O1)NCc1ccccc1F` registered a relative growth of 1.07.

For the molecule `CCN(CC)CCOc1ccc2c(c1)C(=O)c1cc(OCCN(CC)CC)ccc1-2`, the relative growth stood at 1.05.

For `CC[C@H](/C=C/C(C)C1CCC2C3CCC4=CC(=O)CC[C@]4(C)C3CC[C@]12C)C(C)C` (stereo partly specified), the relative growth stood at 0.926. The value for `C[C@@H]1CN([C@H](C)CO)S(=O)(=O)c2ccc(-c3cncnc3)cc2O[C@H]1CN(C)C(=O)NC1CCCC1` was 1.11. The figure for `CC(=O)O[C@@]1(C)C[C@@H](O)[C@@H]2C=CO[C@@H](O[C@@H]3O[C@H](CO)[C@@H](O)[C@H](O)[C@H]3O)[C@@H]21` is 1.17. In the case of `C[C@H]1CN([C@@H](C)CO)C(=O)CCCn2nncc2CO[C@@H]1CN(C)S(=O)(=O)c1ccc(-n2cccn2)cc1`, the relative growth came to 0.954. `COc1ccc(NC(=O)N(C)C[C@@H]2Oc3ncc(C#C[C@@H](C)O)cc3C(=O)N([C@H](C)CO)C[C@@H]2C)cc1` showed a relative growth of 0.948. The figure for `C=C[C@@]1(C)CC(=O)[C@]2(O)[C@@]3(C)[C@@H](O)CCC(C)(C)[C@@H]3[C@H](O)[C@H](OC(C)=O)[C@@]2(C)O1` is 0.891; for `O=C(C[C@H]1CC[C@H]2[C@@H](COC[C@H](O)CN2S(=O)(=O)c2cccc(Cl)c2)O1)NCCCN1CCOCC1` it is 0.901. The value for `COc1cccc(S(=O)(=O)N2C[C@H](O)COC[C@@H]3O[C@@H](CC(=O)NCCCN4CCOCC4)CC[C@H]32)c1` was 0.975; that for `CCN(CC)C(=S)SSC(=S)N(CC)CC` was 0.332. With `C/C(=C(\CCOP(=O)(O)O)SC(=O)c1ccccc1)N(C=O)Cc1cnc(C)nc1N`, the relative growth stood at 0.984. The value for `CC(C)C[C@@H]1NC(=O)[C@H]2C[C@@H](C(=O)NCCCCCCNC(=O)CS)[C@@H](c3ccc(O)cc3)N2C1=O` was 1.03. `NCC[C@H]1CC[C@@H](NC(=O)c2ccccc2F)[C@H](CO)O1` gave a relative growth of 1.07. The value for `COc1ccc(-c2coc3cc(O)ccc3c2=O)c(OC)c1OC` was 0.987; that for `CCOC(=O)[C@H](CCc1ccccc1)N[C@@H](C)C(=O)N(CC(=O)O)C1Cc2ccccc2C1.Cl` was 0.922.
